Assay results from patent US6936604B2, “Bridged bicyclic amino acid-derived [1,4]benzodiazepine vasopressin receptor antagonists” (Ortho-McNeil Pharmaceutical, Inc., priority 2001, dated 2005).

The chains behind the UniProt entries cited, without tags or fusion partners.
UniProt P30518, whole entry: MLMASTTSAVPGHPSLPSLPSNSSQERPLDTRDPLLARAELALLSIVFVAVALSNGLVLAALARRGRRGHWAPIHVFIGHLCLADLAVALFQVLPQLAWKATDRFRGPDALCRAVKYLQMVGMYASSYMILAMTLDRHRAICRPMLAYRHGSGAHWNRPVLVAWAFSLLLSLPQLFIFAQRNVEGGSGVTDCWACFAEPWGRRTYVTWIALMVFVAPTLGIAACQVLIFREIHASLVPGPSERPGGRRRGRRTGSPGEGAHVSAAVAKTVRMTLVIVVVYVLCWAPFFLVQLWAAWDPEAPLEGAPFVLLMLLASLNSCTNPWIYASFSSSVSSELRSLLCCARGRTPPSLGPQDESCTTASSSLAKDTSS

Target: T1, human V2 receptor (Homo sapiens, UniProt P30518)
T1 construct: expressed in transfected cells; host or cells: HEK-293
Assay: In vitro recombinant vasopressin receptor binding assay (3H-arginine vasopressin displacement), V2
Details: cloned human V2 receptor membranes, HEK-293 cells
Procedure: In Vitro Recombinant Vasopressin Receptor Binding Assay
Compounds were assessed for their ability to displace ^3H-arginine vasopressin from the human V1a or V2 receptor in HEK-293 cells. Assay buffer is 50 mM Tris-Cl, 5 mM MgCl2, 0.1% BSA (pH 7.5) containing 5 μg/mL of aprotinin, leupeptin, pepstatin, 50 μg/mL bacitracin, and 1 mM Pefabloc. ^3H-vasopressin is ^3H-arginine-8-vasopressin (68.5 Ci/mmol, final concentration in assay is 0.65-0.75 nM). Into wells of 96-well round bottom polypropylene plates were added buffer, test compound, membrane (containing cloned human V1a or V2 receptor) and ^3H-vasopressin. The reaction plates were allowed to sit at room temperature for one hour. The samples were filtered through Unifilter GF/C plates (presoaked in 0.3 polyethyleneimine). The plates were washed 5 times with cold physiological saline containing 0.05% Tween 20. After drying, the bottom of the filter plates were sealed and 0.025 mL of Microscint-20 was added to each filter. The top of the plate was sealed, and the plate was counted.

O=C(Nc1ccc(C(=O)N2CC3C4CCC(CC4)N3Cc3ccccc32)cc1)c1ccccc1-c1ccccc1 (racemic) [Compound 1, N-[4-[(6,6a,7,8,9,10-hexahydro-7,10-ethanopyrido[2,1-c][1,4]benzodiazepin-5(12H)-yl)carbonyl]phenyl]-[1,1′-biphenyl]-2-carboxamide]
IC50: 6 nM
